By UniProt entry, the sequences of proteins in these tests, tags left out.
UniProt Q9HBX9, whole entry: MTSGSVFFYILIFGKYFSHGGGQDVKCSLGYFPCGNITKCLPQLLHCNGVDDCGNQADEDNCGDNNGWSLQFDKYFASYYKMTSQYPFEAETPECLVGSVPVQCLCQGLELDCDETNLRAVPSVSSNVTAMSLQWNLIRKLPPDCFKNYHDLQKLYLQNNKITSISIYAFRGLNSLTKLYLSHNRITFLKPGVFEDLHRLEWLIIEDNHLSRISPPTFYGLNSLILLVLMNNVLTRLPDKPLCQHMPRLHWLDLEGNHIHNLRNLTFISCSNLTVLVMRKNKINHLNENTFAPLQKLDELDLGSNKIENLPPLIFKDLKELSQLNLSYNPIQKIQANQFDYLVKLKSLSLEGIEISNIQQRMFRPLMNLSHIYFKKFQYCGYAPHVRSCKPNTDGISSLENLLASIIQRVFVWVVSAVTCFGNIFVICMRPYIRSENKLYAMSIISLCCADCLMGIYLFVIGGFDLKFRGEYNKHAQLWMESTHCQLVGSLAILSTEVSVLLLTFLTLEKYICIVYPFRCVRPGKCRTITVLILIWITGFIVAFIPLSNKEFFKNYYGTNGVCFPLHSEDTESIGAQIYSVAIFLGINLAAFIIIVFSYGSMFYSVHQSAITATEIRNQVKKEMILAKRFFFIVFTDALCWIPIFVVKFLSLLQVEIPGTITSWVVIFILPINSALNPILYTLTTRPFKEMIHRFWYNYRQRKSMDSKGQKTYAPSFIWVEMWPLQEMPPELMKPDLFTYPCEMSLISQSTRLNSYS

This experiment has as its target human RXFP1 (Homo sapiens, UniProt Q9HBX9). As to the kind of experiment: RXFP1 cAMP assay (hRXFP1 HEK293 cAMP assay, HTRF). The conditions noted are these: read-out: cAMP hRXFP1 HEK293 Assay EC50, HEK293 cells stably expressing human RXFP1, 30 min at room temperature.
Take `COc1ccc([C@@H]2CO[C@H]3[C@@H]2OC[C@@H]3O)cc1C(=O)N[C@H]1[C@@H](C(=O)Nc2ccc(F)c(C(F)(F)F)c2)[C@H]2CC[C@@H]1/C2=C\C(F)(F)F`: the EC50 is 185 nM. With `COc1ccc(-c2cc(C(OC(=O)NC3CC(F)(F)C3)C(F)(F)F)ccc2F)cc1C(=O)N[C@@H]1C2CCC(/C2=C/C2CC2)[C@@H]1C(=O)Nc1ccc(F)c(C(F)(F)F)c1` (some centres unmarked) the figure was 1 nM; with `COc1ccc(C2CN(C(=O)C3CCC(O)CC3)C2)cc1C(=O)NC1C2CCC(C2=CC2CC2)C1C(=O)Nc1ccc(F)c(C(F)(F)F)c1` (centres unmarked), 56.3 nM; with `COc1ccc(C2CN(C(=O)[C@H]3CC[C@@H](O)CC3)C2)cc1C(=O)N[C@H]1[C@@H](C(=O)Nc2ccc(F)c(C(F)(F)F)c2)[C@H]2CC[C@@H]1/C2=C\C1CC1`, 58.1 nM. With `COc1cc(C)c(C2=NOC3CC(O)CC23)cc1C(=O)N[C@H]1[C@@H](C(=O)Nc2ccc(F)c(C(F)(F)F)c2)[C@H]2CC[C@@H]1/C2=C\C1CC1` (single isomer, unassigned) [658] the figure was 314 nM. With `COc1ccc(C2=NOC3C4CC(C(O)C4O)C23)cc1C(=O)N[C@H]1[C@@H](C(=O)NCC(C)(C)C)[C@H]2CC[C@@H]1/C2=C\C1CC1` (single isomer, unassigned) the figure was 10.5 nM; with `COc1cc(F)c(F)cc1C(=O)N[C@H]1[C@@H](C(=O)Nc2ccc(F)c(C(F)(F)F)c2)[C@H]2CC[C@@H]1C2=C1C=CC=C1`, 350 nM; with `O=C(NC1CC(F)(F)C1)OC(c1ccc(F)c(-c2ccc(OCCO)c(C(=O)N[C@@H]3C4CCC(/C4=C/C4CC4)[C@@H]3C(=O)Nc3ccc(F)c(C(F)(F)F)c3)c2)c1)C(F)(F)F` (some centres unmarked), 71 nM.

For `COc1ccc(C2CCCN(C(C)=O)C2)cc1C(=O)NC1C2CCC(C2=CC(F)(F)F)C1C(=O)Nc1ccc(F)c(C(F)(F)F)c1` (centres unmarked), the half-maximal effective concentration (EC50) is 2230 nM.

Regarding `CNC(=O)OC(C(=O)OC)c1ccc(F)c(-c2ccc(OC)c(C(=O)N[C@H]3[C@@H](C(=O)Nc4ccc(F)c(C(F)(F)F)c4)[C@H]4CC[C@@H]3/C4=C\C3CC3)c2)c1` (some centres unmarked), the concentration giving a half-maximal response (EC50) was found to be 3 nM. With `COc1ccc(-c2cc(C(=O)O)ccc2F)cc1C(=O)N[C@@H]1C2CCC(/C2=C/C2CC2)[C@@H]1C(=O)Nc1cccc(OC(F)(F)F)c1` (some centres unmarked) the figure was 15 nM.
